From PubChem BioAssay AID774 (SRMLSC, 2007)
The entries are a selection whose mix differs from that of the whole data set. Calls of active or inactive are those of the source.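 How the source made its calls: active means single-dose screening hits from any of four coupled enzyme assays that gave an IC50 when retested across doses; inconclusive means no clear call, values can overlap the other calls; inactive means the rest.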

Assay: inhibitors of PK/LDH coupling enzymes, profiling panel, artefact control, biochemical, MLSMR library (AID 774)
Settings: coupled PK/LDH NADH assays, four targets

| SMILES | IC50 |
| --- | --- |
| O=P(Nc1nccs1)(c1ccccc1)c1nc2ccccc2s1 (stereo unspecified) | active: 42.6 µM |
